# Yeast mating assay 2: variants of the scFv Ab-95

Target: peptide PDVDLGDISGINAS, taken from heptad repeat 2 (HR2) of SARS-CoV-2 spike.

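The library (AAYL52) carries one to three amino acid substitutions per variant, with no insertions or deletions. AlphaSeq pools MATa yeast showing the antibodies with MATalpha yeast showing the peptide. The frequency of each diploid, read from paired DNA barcodes, reflects how well the two displayed proteins bind. A regression on co-assayed BCL2-family reference pairs converts the normalised counts of each replicate to an apparent Kd. There are three technical replicates.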

The variants keep the heavy chain, the linker and the frameworks of Ab-95 (scFv order VH, a (GGGGS)3 linker, VL).
VH: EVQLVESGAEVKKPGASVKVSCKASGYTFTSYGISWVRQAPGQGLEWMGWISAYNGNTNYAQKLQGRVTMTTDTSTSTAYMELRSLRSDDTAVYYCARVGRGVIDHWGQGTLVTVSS
VL: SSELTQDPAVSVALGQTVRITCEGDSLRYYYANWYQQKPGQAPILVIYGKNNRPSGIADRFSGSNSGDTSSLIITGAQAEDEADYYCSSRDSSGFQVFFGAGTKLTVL

Changes read parent residue, position, new residue, counted from the first residue of the VL shown.
Numbers give log10(Kd / nM), so 0 is 1 nM and 3 is 1 µM. Smaller is tighter.
Averages over replicates are reported, and they cover detected replicates only.
Where no diploid with the target was found in any replicate, the entry reads "nd": below detection, most likely a poor binder, though not proof of it.

| # | changes | mean log10 Kd (nM) | seen in |
|---|---|---|---|
| 1 | E23V/K50D/S92E | 1.63 | 3/3 |
| 2 | E23Y/R53T/Q96S | 3.69 | 3/3 |
| 3 | L27M/N52I/S92A | 2.95 | 3/3 |
| 4 | Y30T/G49H/D91L | nd | 0/3 |
| 5 | Y29G/D91M | 4.12 | 3/3 |
| 6 | G24Q/N51G/P54T | 3.96 | 1/3 |
| 7 | S26F/K50E/P54G | 3.07 | 3/3 |
| 8 | Y29G/G49A/V97K | 2.86 | 3/3 |
| 9 | S26E/Q96A/F98N | nd | 0/3 |
| 10 | G49M/K50M/F95A | 4.60 | 3/3 |
| 11 | S88D/Q96D | 2.27 | 3/3 |
| 12 | Y31E/N52L/D91I | 1.59 | 3/3 |
| 13 | S26M/R28L/Q96L | 4.49 | 1/3 |
| 14 | K50H/N52E/S93L | 2.17 | 3/3 |
| 15 | Y30V/P54R/S93P | 4.30 | 1/3 |
| 16 | D25N/A32C/S93H | 3.17 | 3/3 |
| 17 | R28S/P54M/Q96T | 3.24 | 3/3 |
| 18 | Y30D/V97N | nd | 0/3 |
| 19 | L27E/N33K/R53E | 4.48 | 2/3 |
| 20 | Y29R/S88R/S92P | 3.77 | 2/3 |
| 21 | S26G/G49L/K50V | 3.64 | 2/3 |
| 22 | D25M/D91P/Q96E | 2.62 | 3/3 |
| 23 | A32R/R53D/S93F | nd | 0/3 |
| 24 | K50Y/N51I/S88R | 3.80 | 2/3 |
| 25 | D25I/A32N/N52G | 4.94 | 2/3 |
| 26 | R28H/N52P/R90I | 4.80 | 2/3 |
| 27 | G49F/D91I/F95P | 4.40 | 2/3 |
| 28 | E23G/Q96I | nd | 0/3 |
| 29 | R53M/G94D/V97C | nd | 0/3 |
| 30 | N33A/S55E/S93E | 5.58 | 1/3 |
| 31 | Y29W/D91E/Q96N | 2.40 | 2/3 |
| 32 | A32G/K50Y/S93E | nd | 0/3 |
| 33 | Y30C/R90G/Q96N | 5.77 | 1/3 |
| 34 | N52K/S55R | 3.39 | 2/3 |
| 35 | R28W/Y29I/R53P | 4.44 | 1/3 |
| 36 | Y31S/Q96R/F98H | 2.06 | 3/3 |
| 37 | S88G/V97T/F98G | 2.45 | 3/3 |
| 38 | S26M/F95P/Q96N | 3.25 | 1/3 |
| 39 | Y29L/N52H/P54W | 3.71 | 3/3 |
| 40 | S26L/K50H/F95R | 3.65 | 3/3 |
| 41 | Y29H/Y30K/N33F | 2.97 | 3/3 |
| 42 | Y30I/S89R/F98M | 3.30 | 1/3 |
| 43 | D25K/R90G/F95K | 3.35 | 3/3 |
| 44 | R28V/R53W | 3.54 | 3/3 |
| 45 | Y29Q/Y30N/K50S | 0.46 | 3/3 |
| 46 | D25M/R28P/N52T | 3.13 | 3/3 |
| 47 | Y31A/D91C/S92E | nd | 0/3 |
| 48 | Y29W/S88V/F98I | 4.06 | 1/3 |
| 49 | G24W/R90G/V97S | 3.24 | 2/3 |
| 50 | S26C/L27M/R90E | nd | 0/3 |
| 51 | D25A/A32D/F95V | 4.36 | 2/3 |
| 52 | N52R/S88C/Q96D | 3.01 | 3/3 |
| 53 | A32H/K50D/V97R | 3.33 | 2/3 |
| 54 | Y29M/P54V/G94E | 3.38 | 1/3 |
| 55 | K50S/G94A/Q96L | nd | 0/3 |
| 56 | R90S/D91Y | 4.50 | 1/3 |
| 57 | S26C/L27N/F95A | 2.34 | 3/3 |
| 58 | L27H/K50N/S55C | 4.21 | 1/3 |
| 59 | D91S/F95K/Q96C | nd | 0/3 |
| 60 | Y30Q/K50G/S88L | 1.70 | 3/3 |
| 61 | Y31P/S55L/S89Y | 0.87 | 3/3 |
| 62 | S26L/N33V | nd | 0/3 |
| 63 | G49M/D91G/G94H | 3.04 | 2/3 |
| 64 | G49V/R90H/V97L | 4.85 | 1/3 |
| 65 | E23K/Y30P/F98L | 2.52 | 3/3 |
| 66 | N51G/S88Q/R90Y | nd | 0/3 |
| 67 | R53I/P54M/Q96E | 2.56 | 3/3 |
| 68 | S26E/P54C/R90D | 5.51 | 1/3 |
| 69 | Y30I/G49H/K50S | 3.36 | 2/3 |
| 70 | Y29G/N33C/S88E | nd | 0/3 |
| 71 | G24V/L27T/S89A | 1.90 | 3/3 |
| 72 | E23F/P54L/F95E | 3.56 | 3/3 |
| 73 | D25H/G94W/F98R | 1.79 | 3/3 |
| 74 | L27S/D91N/F98H | 4.93 | 3/3 |
| 75 | D25T/N33P/S55M | nd | 0/3 |
| 76 | G24I/F95I/Q96E | 4.29 | 2/3 |
| 77 | D25R/G49W/N51T | 5.22 | 1/3 |
| 78 | G49M/S55G/Q96F | 4.30 | 2/3 |

Extract of 5 entries:

{"changes": "D25K/R90G/F95K", "mean log10 Kd (nM)": "3.35", "seen in": "3/3"}
{"changes": "Y29M/P54V/G94E", "mean log10 Kd (nM)": "3.38", "seen in": "1/3"}
{"changes": "G49V/R90H/V97L", "mean log10 Kd (nM)": "4.85", "seen in": "1/3"}
{"changes": "N51G/S88Q/R90Y", "mean log10 Kd (nM)": "nd", "seen in": "0/3"}
{"changes": "S26F/K50E/P54G", "mean log10 Kd (nM)": "3.07", "seen in": "3/3"}

As a blank, each scFv also met three strains without target: over library AAYL52, 28% of these pairings were detected, typically at 3.91 and seldom below 2.90.
In this assay the parent's reference entry averaged 2.31; its copy inside this library read 2.25.

Values reported by Engelhart et al. 2022, doi:10.1038/s41597-022-01779-4 (FLAb copy).